Publication PMC12591191, “SIRT6 Lysine‐Demyristoylates ATF2 to Ameliorate Vascular Injury via PRKCD/VE‐Cadherin Pathway Regulating Vascular Endothelial Barrier” (Advanced Science, 2025)

Chains of the proteins cited; added tags and fusions are not shown.
UniProt Q8N6T7, whole entry S56Y: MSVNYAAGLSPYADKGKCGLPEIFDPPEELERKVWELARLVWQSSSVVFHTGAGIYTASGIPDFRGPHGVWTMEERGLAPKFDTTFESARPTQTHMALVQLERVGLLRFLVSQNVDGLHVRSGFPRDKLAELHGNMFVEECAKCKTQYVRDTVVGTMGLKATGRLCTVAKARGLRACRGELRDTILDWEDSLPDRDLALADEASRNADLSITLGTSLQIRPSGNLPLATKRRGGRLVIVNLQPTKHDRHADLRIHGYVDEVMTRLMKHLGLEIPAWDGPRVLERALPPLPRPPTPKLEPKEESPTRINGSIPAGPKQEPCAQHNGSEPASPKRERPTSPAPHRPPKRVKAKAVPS
UniProt Q8N6T7, whole entry H133Y: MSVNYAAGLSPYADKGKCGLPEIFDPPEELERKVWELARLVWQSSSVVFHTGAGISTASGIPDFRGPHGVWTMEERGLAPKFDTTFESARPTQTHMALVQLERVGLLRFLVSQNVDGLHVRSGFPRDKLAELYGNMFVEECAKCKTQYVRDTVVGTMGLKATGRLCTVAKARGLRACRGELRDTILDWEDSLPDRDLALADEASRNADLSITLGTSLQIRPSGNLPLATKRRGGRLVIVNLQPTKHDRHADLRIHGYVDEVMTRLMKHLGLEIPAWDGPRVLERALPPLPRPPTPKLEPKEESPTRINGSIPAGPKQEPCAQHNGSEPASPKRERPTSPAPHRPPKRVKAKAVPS
UniProt Q8N6T7, whole entry: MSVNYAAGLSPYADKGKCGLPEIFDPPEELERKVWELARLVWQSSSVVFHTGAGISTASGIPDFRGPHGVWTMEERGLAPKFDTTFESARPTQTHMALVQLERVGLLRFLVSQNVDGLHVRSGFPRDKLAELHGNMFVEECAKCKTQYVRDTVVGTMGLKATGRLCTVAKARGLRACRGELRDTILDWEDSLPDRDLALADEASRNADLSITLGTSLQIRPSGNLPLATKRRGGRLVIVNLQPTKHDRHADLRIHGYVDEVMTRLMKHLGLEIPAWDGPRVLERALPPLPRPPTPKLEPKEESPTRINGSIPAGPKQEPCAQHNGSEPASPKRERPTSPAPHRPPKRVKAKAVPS
UniProt Q8N6T7, whole entry R65A: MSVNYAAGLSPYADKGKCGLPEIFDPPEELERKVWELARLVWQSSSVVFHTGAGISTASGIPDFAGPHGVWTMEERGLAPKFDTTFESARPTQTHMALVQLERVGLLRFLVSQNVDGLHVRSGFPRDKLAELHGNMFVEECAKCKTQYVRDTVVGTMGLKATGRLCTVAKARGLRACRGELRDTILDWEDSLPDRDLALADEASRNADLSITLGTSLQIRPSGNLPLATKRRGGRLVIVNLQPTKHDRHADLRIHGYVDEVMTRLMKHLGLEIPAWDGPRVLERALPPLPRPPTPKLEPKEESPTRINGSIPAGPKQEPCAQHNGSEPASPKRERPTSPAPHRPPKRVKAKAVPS
UniProt Q8N6T7, whole entry G60A: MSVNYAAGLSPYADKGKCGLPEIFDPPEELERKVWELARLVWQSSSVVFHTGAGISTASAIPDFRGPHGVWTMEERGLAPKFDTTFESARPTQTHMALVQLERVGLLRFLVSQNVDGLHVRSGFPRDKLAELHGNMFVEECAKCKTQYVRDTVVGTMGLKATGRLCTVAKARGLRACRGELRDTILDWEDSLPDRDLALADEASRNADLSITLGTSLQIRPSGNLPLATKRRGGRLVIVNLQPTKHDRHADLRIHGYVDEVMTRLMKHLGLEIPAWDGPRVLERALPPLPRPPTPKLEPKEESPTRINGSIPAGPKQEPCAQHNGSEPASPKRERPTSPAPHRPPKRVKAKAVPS

Assays:
Type in all cases: binding
SIRT6 S56Y = biological target: T1, SIRT6 S56Y (Homo sapiens, UniProt Q8N6T7, S56Y); assay: Biolayer interferometry, S56Y mutant; conditions: BLI, PBS-T, 120 µM biotin peptide on sensor, analyte S56Y 0.18 to 5.5 µM, no detection; read-out: KD (nt)
T1 construct: the full‐length human SIRT6 (1‐355aa) with the flag tag at the C‐terminus; made in house; host or cells: E. coli ArcticExpress (DE3), pET28a
Source text: (§1) The plasmid pUC57‐SIRT6 contained the full‐length human SIRT6 (1‐355aa) with the flag tag at the C‐terminus. The PCR fragment SIRT6‐Flag from pUC57‐SIRT6 was inserted into pET28a vector to obtain the plasmid pET28a‐SIRT6. Then the pET28a‐SIRT6G60A, pET28a‐SIRT6R65A, pET28a‐SIRT6S56Y, and pET28a‐SIRT6H133Y expression plasmids were obtained through site‐directed mutagenesis by PCR. These SIRT6 expression plasmids were used for SIRT6 expression and purification in E.coli.
(§2) The expression plasmids were transformed in the E.coli Arctic Express (DE3) cells, respectively. The E.coli cells were cultured at 37 °C in 2X YT culture medium. When OD600 reached 0.8, cells were induced by 0.2 mM isopropyl‐1‐thio‐β‐D‐galactopyranoside (IPTG) for 18–20 h at 16 °C. Then, cells were harvested by centrifugation at 6000 rpm for 10min at 4 °C and resuspended in lysis buffer (20 mM Tris‐HCl pH 7.2, 500 mM NaCl, 2% glycerol). Cells were lysed by a high‐pressure homogenizer (Avestin), and centrifuged at 15 000 rpm for room temperature min at 4 °C. […]
(§3) To determinate the affinity of SIRT6 proteins to myristoylated peptides, BLI assays were performed in 96 well plates using an Octet Red96 System. […] Meanwhile, the protein‐peptide affinities were also determined after adding several cofactors (5 mM), such as Mg^2+, Zn^2+, ATP, ADP, AMP, cAMP, NAD^+.

SIRT6 H133Y (dSIRT6) = biological target: T2, SIRT6 H133Y (dSIRT6) (Homo sapiens, UniProt Q8N6T7, H133Y); assay: Biolayer interferometry, H133Y mutant; conditions: BLI, PBS-T, 120 µM biotin peptide on sensor, analyte H133Y 0.18 to 5.5 µM, no detection; read-out: KD (nt)
T2 construct: the full‐length human SIRT6 (1‐355aa) with the flag tag at the C‐terminus; made in house; host or cells: E. coli ArcticExpress (DE3), pET28a
Source text: as §1, §2, §3

SIRT6 = biological target: T3, SIRT6 (Homo sapiens, UniProt Q8N6T7); assay: Biolayer interferometry, SIRT6; conditions: BLI, PBS-T, 120 µM biotin peptide on sensor, analyte SIRT6 0.18 to 5.5 µM, no detection; read-out: KD (nt)
T3 construct: the full‐length human SIRT6 (1‐355aa) with the flag tag at the C‐terminus; His-tag (N); made in house; host or cells: E. coli ArcticExpress (DE3), pET28a
Source text: as §1, §2, §3

SIRT6 R65A = biological target: T4, SIRT6 R65A (Homo sapiens, UniProt Q8N6T7, R65A); assay: Biolayer interferometry, R65A mutant; conditions: BLI, PBS-T, 120 µM biotin peptide on sensor, analyte R65A 0.18 to 5.5 µM, no detection; read-out: KD (nt)
T4 construct: the full‐length human SIRT6 (1‐355aa) with the flag tag at the C‐terminus; made in house; host or cells: E. coli ArcticExpress (DE3), pET28a
Source text: as §1, §2, §3

SIRT6 G60A = biological target: T5, SIRT6 G60A (Homo sapiens, UniProt Q8N6T7, G60A); assay: Biolayer interferometry, G60A mutant; conditions: BLI, PBS-T, 120 µM biotin peptide on sensor, analyte G60A 0.18 to 5.5 µM, no detection; read-out: KD (nt)
T5 construct: the full‐length human SIRT6 (1‐355aa) with the flag tag at the C‐terminus; made in house; host or cells: E. coli ArcticExpress (DE3), pET28a
Source text: as §1, §2, §3

[1] = Biolayer interferometry, Flag peptide (negative control); conditions: BLI, PBS-T, 120 µM biotin peptide on sensor, analyte flag peptide 0.18 to 5.5 µM
Protocol: To determinate the affinity of SIRT6 proteins to myristoylated peptides, BLI assays were performed in 96 well plates using an Octet Red96 System. Assays were performed in PBS‐T buffer (1X PBS, 0.05% tween‐20), 120 µM B‐H3K9^Myr‐5R or B‐H3K9‐5R was attached reversibly to the sensor chip surface. Then, the analytes (SIRT6/SIRT6 mutants/flag peptide, ranged from 0.18 to 5.5 µM) were injected over the sensor surface. We can determine the protein‐peptide affinity by calculating the KD value by the instrument system. Meanwhile, the protein‐peptide affinities were also determined after adding several cofactors (5 mM), such as Mg^2+, Zn^2+, ATP, ADP, AMP, cAMP, NAD^+.

Kd (SIRT6 S56Y): > 5.5 µM | Kd (SIRT6 H133Y (dSIRT6)): > 5.5 µM | Kd (SIRT6): > 5.5 µM | Kd (SIRT6 R65A): > 5.5 µM | Kd (SIRT6 G60A): > 5.5 µM | Kd [1]: > 5.5 µM
SMILES: C[C@H](NC(=O)[C@H](CCCCN)NC(=O)CNC(=O)CNC(=O)[C@@H](NC(=O)[C@H](CO)NC(=O)[C@H](CCCCN)NC(=O)[C@H](CCCNC(=N)N)NC(=O)[C@H](C)NC(=O)[C@@H](NC(=O)[C@H](CCC(N)=O)NC(=O)[C@H](CCCCN)NC(=O)CCCC[C@@H]1SC[C@@H]2NC(=O)N[C@@H]21)[C@@H](C)O)[C@@H](C)O)C(=O)N[C@@H](CCCNC(=N)N)C(=O)N[C@@H](CCCNC(=N)N)C(=O)N[C@@H](CCCNC(=N)N)C(=O)N[C@@H](CCCNC(=N)N)C(=O)N[C@@H](CCCNC(=N)N)C(=O)O [B‐H3K9‐5R, biotin‐KQTARKSTGGKARRRRR]
